# Values quoted from earlier work, collected in patent US9738690B2, “Polyoma virus JC peptides and proteins in vaccination and diagnostic applications” (UNIVERSITAET ZUERICH, priority 2011, dated 2017).
# Conditions: MS patients receiving natalizumab; cited from earlier work
substance,measurement,value
natalizumab,PML cases reported,> 120
